AlphaSeq binding of Ab-14 light chain variants to a spike HR2 peptide

From the AlphaSeq antibody data of Li et al. 2023 (doi:10.1038/s41467-023-39022-2), copy in the FLAb collection.

Antigen: PDVDLGDISGINAS, a 14-residue peptide of the SARS-CoV-2 spike HR2 region.

Each scFv is VH, three GGGGS repeats, VL, as in the parent Ab-14, and differs from it in the CDRs of the light chain only.
VH: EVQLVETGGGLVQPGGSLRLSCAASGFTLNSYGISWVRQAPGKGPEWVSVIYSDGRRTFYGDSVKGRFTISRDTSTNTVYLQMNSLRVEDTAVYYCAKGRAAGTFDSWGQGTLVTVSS
VL: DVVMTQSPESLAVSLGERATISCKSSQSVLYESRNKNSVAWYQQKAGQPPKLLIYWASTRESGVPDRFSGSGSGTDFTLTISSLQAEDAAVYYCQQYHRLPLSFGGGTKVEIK

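Designed CDR sequences, proposed from the first random library and measured here. Their group label is 14L_En_Gibbs (En: ensemble of fine-tuned language models; Gibbs: Gibbs sampling). The scFvs were displayed on barcoded MATa yeast, the peptide on MATalpha yeast. Pairs that bind mate more often; barcode pairs of the diploids are counted by sequencing. Each replicate has its own calibration line, from reference interactions of the BCL2 family. The assay was run in six technical replicates.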

Each variant is given by its three light chain CDRs, as the data file delimits them; those of the parent are KSSQSVLYESRNKNSVA, WASTRES, QQYHRLPLS.
Numbers give log10(Kd / nM), so 0 is 1 nM and 3 is 1 µM. Smaller is tighter.
An entry "n.d." has no value in the source: the pair was not observed among the diploids in that replicate. This suggests poor binding but is not conclusive.

CDR-L1,CDR-L2,CDR-L3,"log10 Kd, replicates",empty controls
KLMHYKHGGNGTRNSVA,EMTIREY,QQYFHLPLN,n.d. n.d. n.d. n.d. n.d. n.d.,0 of 18
MLTMFANENQGWSNNIA,DTNNLNT,QQYQRLPFM,1.14 1.30 1.04 1.14 1.07 1.06,3 of 18 (2.48)
KFSAMLYHDNSEASSVA,EGLEVRE,QQYNRLPLG,n.d. n.d. n.d. n.d. n.d. n.d.,0 of 18
NFSMALEDMGVKTKSIA,ENQLTEY,QQYAKLPLM,1.98 1.07 0.47 1.93 2.03 2.00,2 of 18 (1.83)
NLKEMNVDNQTKHSNIA,SADQTEK,QQYFRLPLQ,1.47 1.23 0.72 0.79 0.76 1.09,1 of 18 (2.04)
HLELKVGGVQAVGDSVA,HASQRQA,QQYYQLPLT,0.53 0.66 0.22 0.24 0.44 0.67,2 of 18 (3.04)
MLTWGDDHETGHQNSIA,HAHERNT,QQYHQLPLT,0.51 1.03 0.83 0.74 0.63 0.81,0 of 18
MGLESYQQGVHEMNNIA,NGDQKLD,QQYYRLPLL,0.83 0.76 0.32 0.16 0.22 0.41,0 of 18
KLQNFSQEHNGMWNSIA,DETMKHT,QHYNRLPLV,n.d. n.d. 2.06 n.d. 2.69 n.d.,1 of 18 (2.27)
KIQWYPLEIRGTGSAVA,EAATRYN,QQYMRLPLM,0.39 0.44 0.55 0.34 0.58 0.53,0 of 18
KMWDYEYGTNAMNSSIA,NASLESD,QQYDRLPLA,n.d. n.d. n.d. n.d. n.d. n.d.,0 of 18
KLWEDFYHGQVETSAIA,DGEHLNM,QQYSHLPLS,0.30 0.74 0.15 0.31 0.38 0.35,1 of 18 (2.12)
MISMEEAPAIQQESSIA,HGGTRAE,QQYNRLPLC,0.33 0.28 0.30 0.17 0.43 0.39,0 of 18
NMQMQDDRMLNAKQNVA,GVDMREE,QQYFRLPFL,0.05 -0.28 0.34 -0.19 -0.40 0.01,0 of 18
KLAMYLEMWARTKHAIA,NANLKTS,QQYNRLPIS,n.d. n.d. n.d. n.d. n.d. n.d.,0 of 18
HINDMLFGDTKIAHSIA,NTGVTSR,QQYSRLPLI,0.47 0.39 0.42 0.14 0.20 0.31,3 of 18 (3.41)
SFPESLRQQQTNVNAVA,GAQHTAV,QQYGRLPLT,0.67 0.70 0.47 0.84 0.67 1.01,0 of 18
KLRLHNLDFYEVENSIA,GESMRAH,QQYYRLPLN,1.48 1.62 1.57 1.91 1.12 1.63,0 of 18
QMTENDRGHQAGGGSIA,DATETME,QQYMHLPLS,0.52 0.66 0.30 0.24 0.44 0.55,1 of 18 (2.29)
RLKCTSLEHGRQNNAIA,AAAKLVT,QQYARLPLT,0.96 1.26 0.35 0.56 0.82 0.99,0 of 18
KLGEKNRMNGMANKNVA,ASNTRVD,QEYHRLPLI,0.38 1.66 0.44 0.62 1.24 1.19,0 of 18
QVTNISDPYGRNRNNIA,NTSERMH,QQYQMLPLA,-0.06 -0.32 -0.55 -0.39 -0.56 -0.35,0 of 18
QLEVFPLQGMSTTQSIA,DASHRTE,QQYSRLPLV,-0.06 -0.28 -0.17 -0.36 -0.33 0.05,1 of 18 (2.66)
KLDMNELHQSQNTNCVA,DSAQKCV,QQYSRLPLS,0.75 0.70 0.72 0.88 0.60 0.62,2 of 18 (3.46)
SLKTMPGEIPKEYNSIA,HAELRTP,QQYHRLPLI,0.69 0.60 0.27 0.69 0.06 0.48,1 of 18 (2.72)
MFALYQDSMGDAKNSIA,DRNTKAH,QQYSKLPLV,0.28 0.37 0.19 0.39 0.25 0.37,0 of 18
KLDSQYQHGTNQKSAMA,DSSVSTQ,QQYSRLPLS,-0.38 -0.14 -0.03 -0.24 -0.36 -0.12,0 of 18
KIYYHEVGLVNGQNSIA,EQDQLTF,QQYSHLPLS,0.85 n.d. n.d. n.d. n.d. n.d.,0 of 18
MMGMTVINQQNMIQNVA,DMNERFA,QQYFSLPLS,1.42 1.53 1.30 1.29 1.48 1.70,0 of 18
KLYSAKQGDIAQNQNVA,AADVLTH,QQYNKLPLS,0.46 0.45 0.16 0.08 0.60 0.29,1 of 18 (2.84)
KIQSHLSQSFASKNNIA,DRVQSAE,QQYNRLPLV,0.39 0.34 0.33 0.48 0.44 0.45,0 of 18
MMHLCQNGYYQQNNNIA,DMNERMM,QQYGRLPLM,0.77 0.55 0.53 0.51 0.39 0.59,6 of 18 (2.99)
NLGGEDAQDTRGMAAVA,DVSEVGE,QHYSRLPLS,n.d. n.d. 1.27 2.48 1.27 2.01,0 of 18
QMTGQLFEQGNRSEPIA,HESMKET,QQYAQLPLT,2.33 2.35 1.86 1.89 2.69 2.77,3 of 18 (3.25)
RFTEHILGLENKIYAIA,NATKTME,QQYFRLPFA,0.80 0.50 0.81 0.62 0.45 0.69,0 of 18
TLMQPQKELGAAKDNIA,DGSIRLG,QQYHRLPLV,1.35 2.03 0.60 1.16 1.08 0.74,1 of 18 (2.15)
QTTAFYEHGYDQNQAMA,DVTMRDQ,QQYERLPLS,0.60 0.37 0.19 -0.12 0.14 0.39,0 of 18
WLNWEGQGDDRGMSNIA,DSDLRMA,QQYHRLPLS,0.26 0.25 0.13 0.25 0.33 0.17,2 of 18 (2.26)
MFDQQLMTENDKNNSVA,EENHLYN,QQYAQLPLI,n.d. 1.84 n.d. 2.31 2.17 2.41,2 of 18 (2.92)
MVVGPDEGEEHNWQSVA,SAEARAM,QQYFRLPLM,1.11 1.09 0.68 1.22 0.94 0.98,0 of 18
GLSDQETEQIAHANSIA,DRDERDV,QQYSRLPLI,1.45 1.06 0.46 0.76 0.55 0.57,0 of 18
KVDMGELPNGFNRSSVA,QAEVRAP,QQYWQLPLE,1.44 1.11 1.02 1.44 1.02 1.36,1 of 18 (2.16)
KLLDWEYGTWAMNSSIA,DAALESD,QQYDRLPLT,n.d. n.d. n.d. n.d. n.d. 2.97,1 of 18 (3.39)
ILMQPYKEPGAAYNNIA,DGSIRLQ,QQYHRLPLV,0.53 0.50 0.43 0.39 0.46 0.87,1 of 18 (3.21)
FVQQNFIDGMERQYSVA,ETSRVME,QQYFHLPLI,1.34 0.39 0.63 0.38 1.11 0.20,0 of 18
SLTIQQDENGLQHQSIA,GAGLRML,QQYHRLPLT,0.39 0.21 0.24 0.28 0.59 0.38,1 of 18 (2.96)
TITGFQNMSTQGNWSIA,QAEQKVH,QQYDRLPLA,n.d. 2.42 2.07 n.d. n.d. 2.72,2 of 18 (2.74)
QVFFQLFEQQNRSNPIA,HESMRET,QQYAYLPLT,n.d. n.d. n.d. n.d. n.d. n.d.,0 of 18
NLVERAQMQDSGRQAIA,NAHARCT,QQYFHLPLT,1.83 1.05 1.13 1.07 1.41 1.46,1 of 18 (2.50)
MINMEIGIEDRKWQAVA,SNSVRAS,QQYGRLPFS,1.31 1.03 1.45 1.57 1.12 1.65,3 of 18 (2.75)

Repeated from above, the 4 best binders with a signal in all replicates:

| CDR-L1 | CDR-L2 | CDR-L3 | log10 Kd, replicates | empty controls |
|---|---|---|---|---|
| QVTNISDPYGRNRNNIA | NTSERMH | QQYQMLPLA | -0.06 -0.32 -0.55 -0.39 -0.56 -0.35 | 0 of 18 |
| KLDSQYQHGTNQKSAMA | DSSVSTQ | QQYSRLPLS | -0.38 -0.14 -0.03 -0.24 -0.36 -0.12 | 0 of 18 |
| QLEVFPLQGMSTTQSIA | DASHRTE | QQYSRLPLV | -0.06 -0.28 -0.17 -0.36 -0.33 0.05 | 1 of 18 (2.66) |
| NMQMQDDRMLNAKQNVA | GVDMREE | QQYFRLPFL | 0.05 -0.28 0.34 -0.19 -0.40 0.01 | 0 of 18 |

The authors averaged sequences with at least three values out of six and counted those with two or fewer as poor binders.
Empty control strains, which show no peptide, gave a signal in 4% of pairings with all light chain designs; the median was 2.64 and 95% of these signals were weaker than 1.59. No background was subtracted. For each scFv, signals with the empty controls are counted beside the result, with their mean in brackets.
The parent sequence was in this pool as ten entries: three were never detected, three once, and four in most replicates, with averages from 0.34 to 2.37.
Values of this round are not directly comparable with the first-round values of the same sequences.